In patent publication US20090214670A1, “Rhcc peptide and uses thereof” (Optovent AB, priority 2005, published 2009):

Assay type: physicochemical
Text: The calculated molecular mass of RHCC-IL-6 monomer is 28.3 kDa. […] The corresponding value for the tetramer is […].

## RHCC-IL-6 fusion molecule: fusion protein: histidine tag, human interleukin-6 sequence, GS linker, RHCC sequence; forms a tetramer
  solubility in aqueous media: soluble in aqueous media
